# Yeast mating assay 2: variants of the scFv Ab-95

Binding partner: SARS-CoV-2 spike HR2 peptide, sequence PDVDLGDISGINAS.

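Phage display of a naive human antibody library on the peptide gave the parent. Library AAYL52 holds single substitutions and randomly drawn double and triple substitutions in the CDRs. AlphaSeq pools MATa yeast showing the antibodies with MATalpha yeast showing the peptide. After mating in shaken culture at 30 °C for 16 h, diploids were selected and their barcode pairs sequenced. A regression on co-assayed BCL2-family reference pairs converts the normalised counts of each replicate to an apparent Kd. Mating was done three times.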

Each scFv is VH, a (GGGGS)3 linker, VL, as in the parent Ab-95, and differs from it in the CDRs of the light chain only.
VH: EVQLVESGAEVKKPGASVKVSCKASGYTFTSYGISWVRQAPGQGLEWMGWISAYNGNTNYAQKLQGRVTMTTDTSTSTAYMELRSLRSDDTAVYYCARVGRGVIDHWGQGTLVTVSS
VL: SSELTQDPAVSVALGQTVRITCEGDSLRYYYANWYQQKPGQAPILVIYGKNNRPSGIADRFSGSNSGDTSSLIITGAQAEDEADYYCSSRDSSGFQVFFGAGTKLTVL

Each variant is given by its three light chain CDRs, as the data file delimits them; those of the parent are EGDSLRYYYAN, GKNNRPS, SSRDSSGFQVF. Scale: log10 of Kd in nM, estimated from mating counts; low values are strong binders. "ND" means that the variant was in the library but no mating with the target was seen in that replicate; the authors take this as a sign of poor binding, and no number exists.

CDR-L1 | CDR-L2 | CDR-L3 | log10 Kd (nM) by replicate | signal with controls
EGDSLRYYYTN | GKNNRPS | SSRDSMGFQVR | 2.53 / 2.65 / 2.68 | 4/9 (3.50)
EGDSLRYYDAN | GKNNRPS | SSRCSSGVQVF | 3.06 / 3.20 / 2.71 | 4/9 (3.77)
EGDSLRYYYAS | GKNNRPS | TSRDSSGLQVF | 3.93 / ND / ND | 1/9 (3.92)
EGDSLRYYERN | GKNNRPS | SSRDSSGFLVF | 2.64 / 2.55 / 1.86 | 5/9 (3.98)
EGDSLRYYYAN | GKINRPS | SSRDSSGSYVF | 3.78 / 4.40 / ND | 1/9 (4.68)
QGDSLYYYYAN | GQNNRPS | SSRDSSGFQVF | 1.52 / 1.49 / 1.41 | 2/9 (4.32)
EGDSLAYYYAN | GKNNRPS | SSRDDSGFQVF | 2.98 / 2.98 / 2.59 | 0/9
EGDSLRYYYAN | GKMNRYS | SSRDSSCFQVF | ND / 3.71 / 3.32 | 5/9 (4.61)
EGDSLRYYYRN | GKNNRTS | SSEDSSGFQVF | 2.47 / ND / ND | 3/9 (3.67)
EGDSLRYPYAN | GKNNRPS | SSRDSSVFQVF | 4.31 / 3.78 / 4.19 | 3/9 (4.22)
EGDSLRYYYAN | GRNNRMS | SSRDSSGFQGF | 2.98 / 2.34 / 3.49 | 2/9 (3.75)
EGDSLRGYYAN | GKNNRPS | SSRDISGFQVL | 1.57 / 1.47 / 1.02 | 3/9 (3.94)
EGDSLRYYYAN | VKNNRPS | SYRDSSGFQVF | 4.42 / ND / ND | 4/9 (3.82)
EGDSLRMYYAN | GKNNRPS | SSRDRSGIQVF | 3.75 / 4.64 / ND | 3/9 (4.30)
EGDSLRYFYAN | GKNNRPS | WSRDSSGFQKF | ND / ND / ND | 1/9 (2.16)
EGDSLGYYYAN | GKWNRPS | SSRDSSGFAVF | 3.19 / 3.00 / 3.63 | 2/9 (3.42)
EGDSLAYYYAS | GKANRPS | SSRDSSGFQVF | 3.12 / 3.56 / 3.65 | 6/9 (4.00)
EGDSLHYYYAN | GKNNRPS | SSTDSSGFQRF | ND / ND / ND | 2/9 (4.56)
EGDSLRRYYAN | GKNNRPS | SSRDSSGFQVT | 1.99 / 1.86 / 1.92 | 3/9 (3.77)
TGDSLRYYYAN | GWNNRPS | SQRDSSGFQVF | 3.13 / ND / ND | 1/9 (4.46)
EGDSLRYEYAN | IKNNRPS | SSRTSSGFQVF | ND / 3.53 / ND | 2/9 (3.05)
EGDSLRYYYAN | GKCNRPS | LSYDSSGFQVF | 5.31 / 4.35 / ND | 2/9 (3.53)
EGDSPRFYYAN | GKNNGPS | SSRDSSGFQVF | 4.77 / 3.65 / ND | 3/9 (4.26)
EFWSLRCYYAN | GKNNRPS | SSRDSSGFQVF | ND / 5.35 / ND | 2/9 (4.59)
EGDSLRCYYAN | GKNNRPS | SPRDSSGFMVF | 3.21 / ND / ND | 2/9 (3.90)
EGDSLRYYYAN | GKNNRCS | SSRDSSGFYVF | 3.77 / 2.86 / 2.32 | 2/9 (3.36)
EGDSLRYYYAN | GKNNRPS | SSQDESGFTVF | ND / ND / ND | 0/9
EGDTLRYYYAN | GKNNRPS | SSCSSSGFQVF | ND / 4.87 / ND | 2/9 (3.45)
EGDSLRYYYAN | GKNNRPG | ISRDSDGFQVF | ND / 3.49 / 3.81 | 3/9 (3.92)
EGDSLRYYYAN | GKNNRPS | SSRDSSGKQVP | 2.39 / 2.75 / 2.56 | 3/9 (4.06)
EGDSCRYYYAN | GKNNRPS | SSRDSSGFHVP | 2.09 / 1.81 / 1.94 | 4/9 (3.99)
EGDSLKYYYAN | GKGNRDS | SSRDSSGFQVF | 3.44 / 4.39 / 3.74 | 0/9
EGDSLRYYYAI | GKLNRPS | SSQDSSGFQVF | 3.38 / 4.30 / ND | 2/9 (2.90)
EGHSLRYYYAN | GKLERPS | SSRDSSGFQVF | 3.38 / ND / 3.44 | 2/9 (3.96)
EGDKLRYYYAQ | GKNNRPQ | SSRDSSGFQVF | 3.92 / 3.41 / ND | 2/9 (4.25)
EHDSLRYYYAN | GKNPRPS | SSRDSSGFQVH | 3.00 / 3.77 / 4.16 | 2/9 (3.71)
EGDSLEYYYAW | GKNNRPS | SSRDSSGFQVF | 3.92 / 2.93 / ND | 3/9 (3.41)
EGDSYRYYYAN | GKTNRPS | SSRDSSLFQVF | ND / 4.73 / ND | 4/9 (4.20)
EGDSLRYQYAN | GKNNRPS | SPRDSSGFQNF | ND / ND / 2.78 | 6/9 (3.29)
EGDSLRVYYQN | GKNNRPS | SSRNSSGFQVF | 3.78 / 3.69 / 3.68 | 3/9 (3.37)
EGDSLRYYYAM | GRNNRPS | SSRDSWGFQVF | ND / ND / ND | 0/9
EGDSLRYYEAH | GKQNRPS | SSRDSSGFQVF | 4.42 / 4.18 / ND | 2/9 (4.14)
EGDSLRYGYAN | RKNNRPS | SSRDSSGFYVF | 2.75 / 2.99 / 2.71 | 4/9 (4.35)
EGDSLRYYYWN | GKNNRPS | SSRDSSGIQQF | ND / ND / ND | 1/9 (4.36)
EGDSLRYYYAN | GKNNPPH | SSRDASGFQVF | 3.37 / 5.66 / ND | 5/9 (3.97)
EGDSLRYYYVN | GHNNRPS | ASRDSSGFQVF | 2.85 / 2.96 / 2.87 | 0/9
EGDSLRYYYAF | RKNNRPS | SSRDSSGFQNF | ND / 5.10 / ND | 1/9 (4.72)
EGDGVRYMYAN | GKNNRPS | SSRDSSGFQVF | 3.17 / 3.64 / 4.18 | 3/9 (4.34)
EGDSLRYYYAN | GKNNRPS | SSRSSSGKCVF | ND / ND / ND | 1/9 (3.58)
EGDSLRYYYAN | GKNNRPQ | SSRDYSGFQVW | 2.32 / 1.99 / 2.43 | 0/9
EGDSLRYAYAK | GKNNRPS | SSRDSSGFLVF | 3.22 / 4.50 / ND | 3/9 (3.83)

Top 6 of the variants detected in all replicates, tightest first:

CDR-L1,CDR-L2,CDR-L3,log10 Kd (nM) by replicate,signal with controls
EGDSLRGYYAN,GKNNRPS,SSRDISGFQVL,1.57 / 1.47 / 1.02,3/9 (3.94)
QGDSLYYYYAN,GQNNRPS,SSRDSSGFQVF,1.52 / 1.49 / 1.41,2/9 (4.32)
EGDSLRRYYAN,GKNNRPS,SSRDSSGFQVT,1.99 / 1.86 / 1.92,3/9 (3.77)
EGDSCRYYYAN,GKNNRPS,SSRDSSGFHVP,2.09 / 1.81 / 1.94,4/9 (3.99)
EGDSLRYYYAN,GKNNRPQ,SSRDYSGFQVW,2.32 / 1.99 / 2.43,0/9
EGDSLRYYERN,GKNNRPS,SSRDSSGFLVF,2.64 / 2.55 / 1.86,5/9 (3.98)

As a blank, each scFv also met three strains without target: over library AAYL52, 28% of these pairings were detected, typically at 3.91 and seldom below 2.90. Also given: how often the same scFv was detected with the empty control strains, with their mean in brackets.

Source: Engelhart et al. 2022 (doi:10.1038/s41597-022-01779-4), MIT Lincoln Laboratory and A-Alpha Bio; data file from the FLAb repository.